Data taken from US6133307A, “Certain benzofuranyl-N-[pyrrolidin-1-YL]-N-methyl-acetamide derivatives useful as opioid agonists” (dated 2000).

Sequences of proteins named here, by UniProt entry; tags and fusion partners are left off. Residues count along the entry.
UniProt G1SJ19, 1-383: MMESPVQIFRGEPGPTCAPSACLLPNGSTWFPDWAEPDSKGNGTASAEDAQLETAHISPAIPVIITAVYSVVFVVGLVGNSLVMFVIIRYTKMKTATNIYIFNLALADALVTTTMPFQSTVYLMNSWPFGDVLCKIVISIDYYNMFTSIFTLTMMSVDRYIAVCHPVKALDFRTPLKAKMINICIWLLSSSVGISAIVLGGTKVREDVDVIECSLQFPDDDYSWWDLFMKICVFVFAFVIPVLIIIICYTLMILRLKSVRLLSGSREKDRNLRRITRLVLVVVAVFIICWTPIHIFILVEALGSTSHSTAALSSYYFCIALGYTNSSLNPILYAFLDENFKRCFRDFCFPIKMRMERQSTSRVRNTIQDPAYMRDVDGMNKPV

The compounds below were run against K-receptor (Oryctolagus cuniculus, UniProt G1SJ19) (assay: Rabbit vas deferens assay). Conditions: ratio to the parent kappa agonist.

Structure (SMILES)	relative potency: EC50 of the compound/EC50 of [5R-(5α,7α,8β)]-N-methyl-N-[7-(1-pyrrolidinyl)-1-oxaspiro-[4,5]dec-8-yl]-4-benzofuranacetamide, monohydrochloride
CN(C(=O)Cc1coc2ccccc12)[C@H](CN1CC[C@H](O)C1)c1ccccc1	0.056
CO[C@H]1CCN(C[C@H](c2ccccc2)N(C)C(=O)Cc2cccc3occc23)C1	1.17
CN(C(=O)C1C(c2ccccc2)=C1c1ccccc1)[C@H](CN1CCCC1)c1ccccc1	1.43
CN(C(=O)Cc1cccc2occc12)[C@H](CN1CC[C@H](O)C1)c1ccccc1	0.28
CN(C(=O)Cc1ccc(S(C)(=O)=O)cc1)[C@H](CN1CC[C@H](O)C1)c1ccccc1	0.04
CN(C(=O)Cc1ccc(S(C)(=O)=O)cc1)[C@H](CN1CCCC1)c1ccccc1	1.38
CN(C(=O)Cc1coc2ccccc12)[C@H](CN1CCCC1)c1ccccc1	1.18
CN(C(=O)C1C(c2ccccc2)=C1c1ccccc1)[C@H](CN1CC[C@H](O)C1)c1ccccc1	1.5
CN(C(=O)Cc1ccccc1)[C@H](CN1CC[C@H](O)C1)c1ccccc1	1.6
CN(C(=O)Cc1cccc2occc12)[C@H](CN1CCCC1)c1ccccc1	6.92

Same assay, conditions: read-out: agonist functional activity EC50 (LVD)

Structure (SMILES)	EC50
CN(C(=O)C1C(c2ccccc2)=C1c1ccccc1)C1CCC2(CCCO2)CC1N1CCCC1 (centres unmarked)	12 nM
